Test results reported in ChEMBL document CHEMBL6087453, “Minimalist Natural ORPphilin Macarangin B Delineates OSBP Biological Function” (J Med Chem, 2025).

Tested on: Zika virus
Assay: Antiviral activity against ZIKV PF-25013-18 infected in human A549 cells assessed as reduction in viral RNA replication at 2 uM by RT-qPCR analysis
Format: functional, organism-based

In the case of `COc1ccc(C(=O)O[C@H]2[C@H](O[C@@H]3[C@@H](OC(C)=O)[C@H](O[C@H]4C[C@H]5[C@@H]6CC=C7C[C@@H](O)CC[C@]7(C)[C@H]6CC[C@]5(C)[C@@]4(O)[C@H](C)C(=O)CCC(C)C)OC[C@@H]3O)OC[C@@H](O)[C@@H]2O)cc1`, the Activity is reported as “Active”.

Calls of active or inactive are those of the source. The calls are words filed in the database; no cut-off is given here.
